Measurements published in patent publication US9062123B2, “Labelled adrenomedullin derivatives and their use for imaging and therapy” (PLUMOSCIENCE INC., priority 2004, dated 2015).

Tests used:
[1] = Plasma kinetics of 125I-rAM(1-50) after single intravenous injection in rats; format: in vivo, rat; conditions: given 5 min before the 125I-rAM(1-50) bolus
Protocol: All experimental procedures were performed in accordance with the regulations and ethical guidelines from Canadian Council for the Care of Laboratory Animals, and received approval by the Animal Ethics and Research Committee of the Montreal Heart Institute. Male Sprague-Dawley rats (Charles River), weighing between 400-450 g, were anaesthetized by an initial intramuscular dose of xylazine (10 mg/kg of body weight) and ketamine (50 mg/kg of body weight), followed by an intra-peritoneal injection of heparin (2000 units; Sigma). Catheters were inserted into the right carotid artery and jugular vein. Heart rate and systemic blood pressure were monitored continuously. […] Venous and arterial blood samples (3 ml) were collected and centrifuged (1875 g, 15 min, 4° C.) and the plasma saved for subsequent measurement of irAM (immunoreactive AM). A similar amount of saline was infused into the animals to prevent hypovolaemia.
The animals were then killed and the lungs, liver, kidneys (en bloc with the adrenal glands) and heart were removed and gravity drained. […] Results are expressed as a percentage of total radioactivity injected. […]
Multiple group comparisons were performed by factorial ANOVA, followed, when a significant interaction was found, by the Bonferroni/Dunn t test. […] In the canine experiments, the effect of drugs on AM extraction was analyzed by two-tailed paired Student's t tests. […]

[2] = Biodistribution / organ retention of 125I-rAM(1-50) in rats, with and without antagonists; format: in vivo, rat
Protocol: The animals were then killed and the lungs, liver, kidneys (en bloc with the adrenal glands) and heart were removed and gravity drained. […] Results are expressed as a percentage of total radioactivity injected.
Three groups of rats (n=20 in each) were studied and received either 200 μl of hAM(22-52) (5.6 nmol; Bachem), 100 μl of CGRP (1.75 nmol; Phoenix Pharmaceuticals) or 100 μl of unlabelled rAM(1-50) (17.5 nmol; American Peptide). The drugs were given by either intraarterial (n=10 in each group) or intravenous (n=10 in each group) injection 5 min before the ^125I-rAM(1-50) bolus. Plasma samples and tissues were treated as described above.

[3] = In vivo single-pass pulmonary extraction of 125I-rAM(1-50) in dogs (indicator-dilution); set-up: species or system dog; conditions: intravenous bolus of 100 nmol, 5 min before
Protocol: Dogs were anaesthetized and prepared as described in detail in reference, which is hereby incorporated by reference. A catheter was inserted into the carotid artery and positioned just above the aortic valve. This catheter was connected to a peristaltic pump for automated blood withdrawal. Another catheter was placed into the jugular vein and positioned in the right ventricular outflow tract to allow bolus injection of the study tracers. A bolus was prepared by adding 3.3 μCi of 125I-rAM(1-50) (2.9 pmol) to 3 ml of Evans-Blue-dye labelled albumin and 0.9% saline to give a final volume of 6 ml. The mixture was separated into three equal parts for the two successive experiments in each animal and to realize dilution-curve standards. A baseline single-bolus indicator-dilution experiment was performed. After 5 min, CGRP (n=7), hAM(22-52) (n=8) and unlabelled rAM(1-50) (n=9) were administered as an intravenous bolus of 100 nmol and 5 min later a second indicatordilution experiment was performed.
The collected samples were processed and indicator-dilution curves constructed and analyzed as described in previously cited reference 13. Cardiac output and mean tracer AM extraction during the pulmonary transit time were computed from the curves. […]

[4] = target: AM1 (CRLR+RAMP2) receptor, lungs of dogs; experiment: Displacement of labelled human adrenomedullin in the lungs of dogs; format: binding, dog; conditions: displacement of labelled hAM
Source text: These concentrations, denoted by IC-50, are shown in Table 1 for various adrenomedullin fragments and linear and cyclic adrenomedullin peptides.

Substance	effect on plasma kinetics of radiolabelled rAM(1-50) [1]	effect on biodistribution of 125I-rAM(1-50) ([2]; given before the tracer)	effect on pulmonary first-pass retention of 125I-rAM(1-50) ([2]; prior administration)	single-pass pulmonary extraction of 125I-rAM(1-50) after administration of the substance [3]	IC50 [4]
calcitonin gene-related peptide (ACDTATCVTHRLAGLLSRSGGVVKNNFVPTNVGSKAF; Calcitonin gene-related peptide 1; UniProt P06881 83-119, looked up) [CGRP, calcitonin gene-related peptide (Phoenix Pharmaceuticals)]	did not modify plasma kinetics	did not significantly modify this distribution	not affected	40.6±2.9%	
hCGRP: human calcitonin gene-related peptide					440 nM
